Measured values taken from patent US12527774B2, “Estrogen-related receptor alpha modulators” (LEAD PHARMA HOLDING B.V., priority 2019, dated 2026).

System: B16F10 melanoma
Assay: B16F10 Melanoma Syngeneic Mouse Model
Conditions: 30 mpk p.o., q.d., C57BL/6 mice
Procedure: B16F10 Melanoma Syngeneic Mouse Model
Examples inhibitors 100, 191, 192, 194 and 196 were tested for their ability to inhibit tumor growth in a B16F10 melanoma syngeneic mouse model.
Cell line and tumor model: B16F10 melanoma cell line derived allograft model in C57BL/6 mice.
Mouse B16F10 melanoma cells were sourced from American Type Culture Collection (ATCC), USA. Cells were grown in DMEM (Invitrogen, Catalogue No. 31600-034) supplemented with 10% FBS (Invitrogen, Catalogue No. 10438-026), and 1% penicillin streptomycin (Thermo Fisher Scientific, Catalogue No. 15140-122). […]
B16F10 tumor grafts were measured after 5 days of cell inoculation once they became palpable. […]
Tumor dimensions—length (I) and breadth (b)—were measured by caliper on the day of animal randomization based on tumor volume (Day 1) and thrice weekly thereafter until study termination. Tumor volumes were calculated using the formula b^2*I*0.52 where l=length, b=breadth (Dusan Djokovic et al., BMC Cancer, 2010, 10:641). Tumor growth inhibition was calculated after normalizing the tumor volume on a given day to that on Day 1. […]

COc1cc(C2CC(=O)Nc3n[nH]cc32)ccc1COc1ccc(C(F)(F)F)cc1C(F)(F)F (racemic)
Tumor Volume (mm^3) Day 13: 814 ± 117 mm^3 | Tumor Growth Inhibition (%) (Day 13): 57%
